# Biological target: HLE (human leukocyte elastase) (Homo sapiens, UniProt P08246)
# Chains of the proteins cited; added tags and fusions are not shown. Residues count along the entry.
# UniProt P08246, 30-267 limits assumed: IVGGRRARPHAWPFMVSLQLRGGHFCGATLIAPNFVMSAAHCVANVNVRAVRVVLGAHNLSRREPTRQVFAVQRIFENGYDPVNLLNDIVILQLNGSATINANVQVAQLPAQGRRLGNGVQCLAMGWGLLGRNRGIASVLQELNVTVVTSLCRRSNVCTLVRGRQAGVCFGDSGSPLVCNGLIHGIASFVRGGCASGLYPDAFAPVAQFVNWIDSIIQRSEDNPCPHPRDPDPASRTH
# Assay: HLE presteady state inhibition kinetics
# Conditions: [I] = 7.6 × 10^-7 M, [E] = 7.6 × 10^-8 M; for kobs: first order rate constant; for kobs /[I]: second order rate constant
# Protocol: ^c First and second order rate constants were determined by presteady
# state inhibition kinetics.
kobs [s⁻¹],kobs /[I] [M⁻¹ s⁻¹],SMILES
0.021,461,COC(=O)CCC(=O)N[C@@H](CCCNC(=O)OCc1ccccc1)C(=O)N[C@@H](C)C(=O)N1CCC[C@@H]1C(=O)CN(C(=O)Oc1ccc([N+](=O)[O-])cc1)C(C)C
0.376,8237,COC(=O)CCC(=O)N[C@@H](CCCNC(=O)OCc1ccccc1)C(=O)N[C@@H](C)C(=O)N1CCC[C@H]1C(=O)CN(C(=O)Oc1ccc([N+](=O)[O-])cc1)C(C)C

# From US5008245A (University of Kentucky Research Foundation, priority 1988, dated 1991)
